One compound from ChEMBL document CHEMBL1123752, “Hexahydro-1H-1-pyrindines from acid rearrangement of 9-alkylidene-5-(m-methoxyphenyl)-2-methylmorphans. A new structural type of narcotic antagonists” (J Med Chem, 1987) can be followed below.

This experiment deals with Mus musculus. Nature of the experiment: Compound administered subcutaneously was evaluated for antinociceptive activity determined by hot plate test in mice. (Hot-plate and tail-flick tests time the reaction to a heat stimulus.)

The term ED50 denotes the dose that gives a 50% effect, or the effect in half of the subjects. In the case of `C=CCN1CC[C@]23c4c5ccc(O)c4O[C@H]2[C@@H](O)C=C[C@H]3[C@H]1C5.Cl`, it took a dose of 9.9 mg/kg to reach the 50% effect level (ED50).
